Data published in publication PMC8675330, “Encapsulated Escitalopram and Paroxetine Intranasal Co-Administration: In Vitro/In Vivo Evaluation” (Frontiers in Pharmacology, 2021).
Where a name gives a salt, the structure may show the parent alone.

Experiment: In vivo pharmacokinetics in plasma, brain and lung after IV, IN and IN + BorNLC co-administration
Design: species or system CD-1 mice
Conditions: escitalopram; IN free drug vs IV; 2.38 mg/kg
Method: Healthy adult CD-1 mice (25–30 g) were acquired from Charles River Laboratories (L’Arbresle, France) and accommodated in a relative humidity of 55 ± 5%, a controlled temperature of 20 ± 2°C, and reversed 12 h light–dark cycles. The studies were always performed in the dark phase (active phase between 08h00 and 20h00). A period of at least 7 days was considered for the animals to become familiarized with the environment. Animals had ad libitum access to food (4RF21, Mucedola®, Italy) and tap water during the entire experiment period.
Before treatment, animals were anesthetized by intraperitoneal administration of a mixture of ketamine (100 mg/kg) and xylazine (10 mg/kg) to keep them immobile during IN or IV administration. Animals were randomly divided into 3 groups (n = 28) and subdivided into 7 time-points (n = 4). […]
Animals were sacrificed by cervical dislocation and decapitation at 5, 15, 30, 60, 120, 240, and 480 min after administration, and heparinized tubes were used for blood collection. Blood samples were centrifuged at 1,252 g for 10 min at 4°C, and plasma supernatants were analyzed by HPLC-DAD. […]
Briefly, 300 μl of methanol were added to 200 μl of plasma, 200 μl of lung homogenate, or 400 μl of brain homogenate for protein precipitation. […] The detection wavelength to quantify the IS was set at 290 nm.

DTE (drug targeting efficiency): 98.8%
DTP (direct transport percentage): −1.21%
Compound: CN(C)CCC[C@@]1(c2ccc(F)cc2)OCc2cc(C#N)ccc21 [Escitalopram, escitalopram oxalate]
